# From PubChem BioAssay
# Rows were chosen to be rich in hits. Some 0.43% of all compounds tested hit in one or more screens of this group.
# GIV-Gai inh: GIV-Galpha-i interaction inhibition; AID 1224905; 210,000 tested, 0.42% active; Galpha-i3/FITC-GIV peptide fluorescence polarization, 90 min; stronger effect = lower value; scaled: aluminum fluoride 0%, vehicle 100%; percent of control (FP), % (concentration not given with the values);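 active = replicate mean at 85% of control or lower, very high polarization wells dropped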;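 also: wells of about 15 µL received 100 nL stock; the first replicate is given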
# HCMV UL50-53 inh: disrupts HCMV UL50-UL53 complex binding. HTRF UL50-UL53 interaction, normalized percent inhibition. inhibition, % (no concentration beside the values). 0.15% of 190,000 active. AID 1918969; in the data active means inhibition above about 27%, passing the limit was not always enough
# GIV-Gai FP conf: confirmation of inhibitors of GIV binding to rat Galpha-i3 | FITC-GIV peptide binding to Galphai3, fluorescence polarization; active compounds read low | AID 1259350 | shares compounds with GIV-Gai inh | 38% of 580 active | fluorescence polarization, mP at 100 µM;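 active means inhibition score of 15 or more, meaning 100 minus mean polarization as percent of control over three replicates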;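 further: lower mP means peptide displaced from Galphai3 so more inhibition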
# GIV-Gai AS conf: GIV-Galpha-i3 inhibition, AlphaScreen confirmation | 39% of 580 active | AlphaScreen counts at 100 µM | AlphaScreen Galphai3-GIV binding, purified proteins, 90 min; active compounds read low | shares compounds with GIV-Gai inh;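 active means inhibition score at or above a set limit, where the score is 100 minus the three-replicate mean percent of control signal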
# An asterisk follows results filed as active; · = no result given.
# Letters: A = GIV-Gai inh; B = HCMV UL50-53 inh; C = GIV-Gai FP conf; D = GIV-Gai AS conf
1	CC(=O)Nc1ccc2c(c1)C1C=CCC1C(C(=O)O)N2 (stereo not drawn)
  A: 188; B: -58; C: ·; D: ·
2	CCOc1cc(-c2cccc(OC)c2)nc2ccc(C(=O)Nc3ccccc3O)cc12
  A: 109; B: -27; C: ·; D: ·
3	CCn1c(CN(c2ccc(F)cc2)S(C)(=O)=O)nnc1SCC(=O)Nc1ccc(F)cc1F
  A: 103; B: 2; C: ·; D: ·
4	CCOC(=O)c1ccoc1CN1c2cccc3cccc(c23)S1(=O)=O
  A: ·; B: 0; C: ·; D: ·
5	c1ccc2c(c1)CCN2c1c2c(nc3ncnn13)CCC2
  A: 91; B: -10; C: 78; D: 25963
6	Cc1cc(N2CCc3ccccc32)n2ncnc2n1
  A: 107; B: 0; C: ·; D: ·
7	Cc1ccc(OCc2nc(-c3ccc(C(=O)NCCc4ccc(Cl)cc4)cc3)oc2C)cc1
  A: 102; B: ·; C: ·; D: ·
8	Cc1onc(-c2ccccc2)c1CNC(=O)c1cc(F)cc2c1OCOC2
  A: 99; B: -8; C: ·; D: ·
9	O=c1c(=N\O)/c(=N/O)c(=O)c2ccccc12
  A: 59*; B: 97*; C: 64*; D: 4729*
10	O=c1c(=Nc2ccccc2O)c(=O)c2ccccc12
  A: ·; B: 37; C: ·; D: ·
11	Cc1cccc(NC(=O)c2ccco2)n1
  A: 108; B: -9; C: ·; D: ·
12	Cc1cccc(NC(=O)C(F)(F)C(F)(F)C(F)(F)F)n1
  A: 65*; B: 4; C: 77; D: 31955
13	COc1ccc(NC(=O)c2c[nH]c(=O)[nH]c2=O)cc1
  A: ·; B: -25; C: ·; D: ·
14	Nc1nonc1C(=O)NN=c1c(=O)c2ccccc2c1=O
  A: 80*; B: -20; C: 59; D: 25933*
15	Nc1nonc1C(=O)NCCN=Cc1ccccc1O
  A: 106; B: -2; C: ·; D: ·

# (continued)
# Letters: A = GIV-Gai inh; B = HCMV UL50-53 inh; C = GIV-Gai FP conf; D = GIV-Gai AS conf
16	COC(=O)C1=CN(Cc2ccc(Cl)cc2)C=C(C(=O)OC)C1c1ccc(OC)c(OC)c1OC
  A: 100; B: ·; C: ·; D: ·
17	CCCN(CCC)S(=O)(=O)c1ccc(C(=O)Nc2ccc3c4c(cccc24)C(=O)N3CC)cc1
  A: 130; B: ·; C: ·; D: ·
18	C=CCN(CC=C)S(=O)(=O)c1ccc(C(=O)Nc2ccc3c4c(cccc24)C(=O)N3CC)cc1
  A: 78*; B: ·; C: 64; D: 46376
19	O=C1CN(C2CCS(=O)(=O)C2)C(=S)N1c1ccccc1 (stereo not drawn)
  A: ·; B: -18; C: ·; D: ·
20	Cc1ccc(C23CC4CC(CC(CNC(=O)CC56CC7CC(C5)CC(CC(=O)NCC58CC9CC(C5)CC(c5ccc(C)cc5)(C9)C8)(C7)C6)(C4)C2)C3)cc1
  A: 114; B: ·; C: ·; D: ·
21	CC1=NN(c2ccccc2)C(=O)/C1=C1/C(=O)N(c2ccccc2)N=C1C
  A: 61*; B: 106*; C: 53*; D: 17646*
22	CC1=NN(c2ccccc2)C(=O)C1=C1SCCS1
  A: 103; B: -109; C: ·; D: ·
23	COc1ccc(-c2nc(-c3ccc4c(c3)[nH]c(=O)c(=O)n4C)no2)cc1OC
  A: 86; B: 4; C: 81; D: 27124
24	COc1ccc(-c2nc(-c3ccc4c(c3)[nH]c(=O)c(=O)n4C)no2)cc1
  A: 103; B: 16; C: ·; D: ·
25	COc1cccc(NC(=O)c2oc3ccccc3c2NC(=O)Cc2cccc(C)c2)c1
  A: 106; B: 3; C: ·; D: ·
26	O=C(N/C=C/c1ccccc1Cl)OCc1ccc(Cl)cc1
  A: 100; B: 5; C: ·; D: ·
27	N#CC1=C(SCc2ccccc2)SC(c2ccc(C(=O)O)cc2)NC1=O (stereo not drawn)
  A: 74*; B: ·; C: 65; D: 28170*
28	N#CC1=C(SCc2ccccc2)SC(CO)NC1=O (stereo not drawn)
  A: 106; B: -15; C: ·; D: ·
29	O=C(Nc1ccc(N2CCOCC2)c2nonc12)c1ccco1
  A: 113; B: 0; C: ·; D: ·
30	Nc1ccc(N2CCOCC2)c2nonc12
  A: 63*; B: 5; C: 46*; D: 2710*

# (list continues)
# Letters: A = GIV-Gai inh; B = HCMV UL50-53 inh; C = GIV-Gai FP conf; D = GIV-Gai AS conf
31	CN(Cc1ccccc1)C(=O)COC(=O)c1cnc(Cl)c(Cl)c1
  A: ·; B: -8; C: ·; D: ·
32	Cc1ccc(NC(=O)CN(c2nccs2)S(=O)(=O)c2ccccc2)cc1
  A: ·; B: -44; C: ·; D: ·
33	COCCNS(=O)(=O)c1cc(-c2cnn3c(C)cc(C)nc23)ccc1OC
  A: 107; B: ·; C: ·; D: ·
34	COc1ccc(OC)c(NC(=O)CCc2c(C)nc3c(-c4ccccc4)c(C)nn3c2C)c1
  A: 101; B: -5; C: ·; D: ·
35	COc1ccc(NC(=O)CCc2c(C)nc3c(-c4ccc(F)cc4)c(C)nn3c2C)c(OC)c1
  A: 92; B: -7; C: 80; D: 32949
36	CCOC(=O)c1c(C)n(OCc2ccccc2)c2ccc3nonc3c12
  A: 99; B: ·; C: ·; D: ·
37	c1ccc(COn2c3c(c4c5nonc5ccc42)CCCC3)cc1
  A: 52*; B: -34; C: 49*; D: 18180*
38	COC(=O)CSC1=C(C#N)C(c2ccc(OCc3ccccc3)cc2)CC(=O)N1 (stereo not drawn)
  A: ·; B: -16; C: ·; D: ·
39	Cc1cccc(-c2nc3nc(C)cc(N4CCN(c5ccccc5)CC4)n3n2)c1
  A: 103; B: -36; C: ·; D: ·
40	Cc1ccc(-c2nc3nc(C)cc(N4CCN(c5cccc(C)c5)C(C)C4)n3n2)cc1 (stereo not drawn)
  A: 73*; B: 10; C: 84; D: 32703
41	O=C(O)c1cc(O)c(O)c(O)c1
  A: ·; B: -20; C: ·; D: ·
42	O=C(O)c1cc(O)[nH]c(=O)c1
  A: 78*; B: 83*; C: 42*; D: 10996*
43	O=C(Nc1ccc(N2CCOCC2)cc1)Nc1ccc2nc(-c3ccco3)c(-c3ccco3)nc2c1
  A: 97; B: -38; C: ·; D: ·
44	O=C(NCCCO)Nc1ccc2nc(-c3ccco3)c(-c3ccco3)nc2c1
  A: 81*; B: 1; C: 58*; D: 1698*
45	CCOc1cc(/C=C2/C(=O)ON=C2C)cc(Cl)c1OCc1ccc(F)cc1
  A: 98; B: ·; C: ·; D: ·

# Reprinted at random: four records from the list, in no set order.
# Letters: A = GIV-Gai inh; B = HCMV UL50-53 inh; C = GIV-Gai FP conf; D = GIV-Gai AS conf
45	CCOc1cc(/C=C2/C(=O)ON=C2C)cc(Cl)c1OCc1ccc(F)cc1
  A: 98; B: ·; C: ·; D: ·
37	c1ccc(COn2c3c(c4c5nonc5ccc42)CCCC3)cc1
  A: 52*; B: -34; C: 49*; D: 18180*
42	O=C(O)c1cc(O)[nH]c(=O)c1
  A: 78*; B: 83*; C: 42*; D: 10996*
34	COc1ccc(OC)c(NC(=O)CCc2c(C)nc3c(-c4ccccc4)c(C)nn3c2C)c1
  A: 101; B: -5; C: ·; D: ·

# (next part)
# Letters: A = GIV-Gai inh; B = HCMV UL50-53 inh; C = GIV-Gai FP conf; D = GIV-Gai AS conf
46	CSc1nnc2c(n1)OC(c1cccs1)Nc1ccccc1-2 (stereo not drawn)
  A: 53*; B: -37; C: 61; D: 27085*
47	COc1cc(C2Nc3ccccc3-c3nnc(SC)nc3O2)cc(Br)c1O (stereo not drawn)
  A: 105; B: -51; C: ·; D: ·
48	COc1ccc(C2Nc3ccccc3-c3nnc(SC)nc3O2)cc1C (stereo not drawn)
  A: 36*; B: -37; C: 82; D: 27274
49	CCCSc1nnc2c(n1)OC(c1cccs1)Nc1ccccc1-2 (stereo not drawn)
  A: 103; B: -31; C: ·; D: ·
50	COCCCN=C1NN=C(c2ccc(C)c(C)c2)CS1
  A: ·; B: -35; C: ·; D: ·
51	COCCCN1CCc2nc(SCC(=O)Nc3cccc(C(F)(F)F)c3)[nH]c(=O)c2C1
  A: 98; B: -25; C: ·; D: ·
52	CC(C)(C)N=C1NN=C(c2ccc(Cl)c(Cl)c2)CS1
  A: ·; B: -20; C: ·; D: ·
53	CCCCCN1C(C(=O)c2ccccc2)=C(NC(=O)c2ccc(C)cc2)c2ccccc2S1(=O)=O
  A: 106; B: -7; C: ·; D: ·
54	CCN1C(C(=O)c2ccccc2)=C(NC(=O)c2ccccc2)c2ccccc2S1(=O)=O
  A: 55*; B: -4; C: 20*; D: 46797
55	Cc1ccc(NC(=O)c2ccc(-n3nc(N4CCCC4)ccc3=O)cc2)nc1
  A: 101; B: ·; C: ·; D: ·
56	CN(C)/C=C/C=C/c1cc(=O)cc(/C=C/C=C/N(C)C)o1
  A: 5.8*; B: 67*; C: 25*; D: 2403*
57	COCCNC(=O)c1ccccc1NC(=O)c1ccco1
  A: 103; B: -15; C: ·; D: ·
58	O=C(CSc1nc(-c2ccccc2)cs1)N1CCN(S(=O)(=O)c2ccccc2)CC1
  A: ·; B: -24; C: ·; D: ·
59	O=C(CSc1nc(-c2ccccc2)cs1)N1CCOCC1
  A: 90; B: -2; C: 73; D: 49138
60	CCOC(=O)c1c(NC(=O)Cn2c(-n3nc(C)cc3C)nc(C)c(C)c2=O)sc2c1CCCCC2
  A: 117; B: ·; C: ·; D: ·

# Going on with the list:
# Letters: A = GIV-Gai inh; B = HCMV UL50-53 inh; C = GIV-Gai FP conf; D = GIV-Gai AS conf
61	CN1c2ccccc2N(C)C1c1ccc(O)cc1
  A: 16*; B: 68*; C: 31*; D: 16384*
62	CN1C(=O)c2ccccc2N(C)C1c1ccc(F)cc1 (stereo not drawn)
  A: 101; B: 0; C: ·; D: ·
63	CCOC(=O)c1c(-c2ccccc2)cn2ccccc12
  A: 102; B: -18; C: ·; D: ·
64	CCOC(=O)c1c(-c2ccccc2)c[nH]c1N
  A: 60*; B: -10; C: 39*; D: 19838*
65	COc1ccc(-c2cc(C(F)(F)F)n3nc(C(=O)NCc4ccco4)c(Cl)c3n2)cc1OC
  A: 101; B: ·; C: ·; D: ·
